Values quoted from earlier work as cited in patent US20030232019A1, “Inhalable formulations for sustained release” (Advanced Inhalation Research, Inc., priority 2002, published 2003).
Like-named read-outs stand apart in the source and are kept apart here.

Key:
[1] = primates; dry powder formulation, pulmonary delivery
[2] = human subjects; dry powder formulation, pulmonary delivery

insulin
time at which the peak insulin level was reached [1]: about 30 minutes | time at which the peak insulin level was reached [2]: about 20 minutes
